How the values were obtained:
Type in all cases: binding, human
EGFP-LC3B R11A = test: Co-immunoprecipitation with EGFP-LC3B R11A; conditions: α-GFP IP, 24 hrs post transfection, Fig. S5a
Procedure: (§1) Cells were scraped, centrifuged at 500 g for 5 min, and lysed in 150 µL CHAPS lysis buffer (2% CHAPS, 1% Triton X-100, 137 mM NaCl, 2 mM EDTA, 10% glycerol, and 20 mM Tris-HCl, pH 8.0) containing protease and phosphatase inhibitors. 5 µL of total lysate was kept as Input sample and 145 µL of cell lysate was incubated with 12.5 µL α-GFP (1:40, Roche)-coupled Dynabeads Protein G (purchased from Invitrogen) for 2 hrs at 4 °C. This step was followed by three washing steps using 0.02% Tween-20/PBS and immunoprecipitated proteins were eluted from Dynabeads by adding 4X LDS buffer (purchased from Invitrogen) and 10X sample reducing agent (purchased from Invitrogen) to the beads. Heating at 70 °C for 10 min will denaturized the proteins to analyze them by Western blotting.

EGFP-LC3B R10A = test: Co-immunoprecipitation with EGFP-LC3B R10A; conditions: α-GFP IP, 24 hrs post transfection, Fig. S5a
Procedure: as §1

GFP-LC3B K51A = test: Co-immunoprecipitation with GFP-LC3B K51A; conditions: α-GFP IP, Western blot
Procedure: as §1

With “tRFP-p62: autophagy receptor p62 expressed in cells, positive control [reference compound]” as the substance, how does the “co-immunoprecipitation with LC3B R11A” value (EGFP-LC3B R11A) read?
Its value is “weakly coimmunoprecipitates”.

What about the “co-immunoprecipitation with LC3B R10A” value (EGFP-LC3B R10A) of the same substance?
The value was “weakly coimmunoprecipitates”.

And the “co-immunoprecipitation with GFP-LC3B K51A” value (GFP-LC3B K51A)?
Its value is “fails to coimmunoprecipitate”.

Source: PMC5430633, “Phosphorylation of the mitochondrial autophagy receptor Nix enhances its interaction with LC3 proteins” (Scientific Reports, 2017)
